Earlier results as cited in US10167256B2, “Psychotrophic agents and uses thereof” (LB PHARMACEUTICALS INC., priority 2016, dated 2019).

Sequences of proteins named here, by UniProt entry; tags and fusion partners are left off. A line that says so, or that is headed by a name, gives the form on record, which may keep a tag or linker.
UniProt P34969, other isoform, or with tags, fused parts or gaps: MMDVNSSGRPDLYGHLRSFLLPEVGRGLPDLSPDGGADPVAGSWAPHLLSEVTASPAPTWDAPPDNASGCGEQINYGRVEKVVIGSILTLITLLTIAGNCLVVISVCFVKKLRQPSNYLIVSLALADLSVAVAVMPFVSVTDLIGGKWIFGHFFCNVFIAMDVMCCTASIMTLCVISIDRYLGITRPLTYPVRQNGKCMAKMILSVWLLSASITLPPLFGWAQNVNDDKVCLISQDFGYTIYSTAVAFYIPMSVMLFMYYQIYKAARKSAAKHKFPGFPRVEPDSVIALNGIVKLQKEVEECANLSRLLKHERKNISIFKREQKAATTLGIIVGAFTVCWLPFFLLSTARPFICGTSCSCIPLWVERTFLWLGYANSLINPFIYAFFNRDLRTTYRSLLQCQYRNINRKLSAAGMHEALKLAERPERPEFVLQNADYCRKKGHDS

Molecular target: HT7a receptor (Homo sapiens (Human), UniProt P34969)
Conditions: cited from earlier work

Question: For `CCN1CCCC1CNC(=O)c1cc(S(=O)(=O)CC)c(N)cc1OC` (stereo not shown) [Amisulpride, 4-amino-N-(((1-ethyl-2-pyrrolidinyl)methyl)-5-(ethylsulfonyl))-2-methoxybenzamide], which Ki is on record?
Answer: low double digit
